Experimental data from article PMC9775191, “A Subset Screen of the Compounds Australia Scaffold Library Identifies 7-Acylaminodibenzoxazepinones as Potent and Selective Hits for Anti-Giardia Drug Discovery” (Biomedicines, 2022).

Tested on: G. duodenalis BRIS/91/HEPU/1279
Assay: Primary Giardia screen at 10 µM (live-cell imaging, automated counting)
Format: cell-based, Giardia duodenalis
Settings: first singlicate assay
Experimental: Each compound was assessed in singlicate, at a final concentration of 10 μM (0.4 μL of a 5 mM stock; diluted to a final volume of 200 μL in culture medium; 0.2% DMSO). […] Plates were incubated in sealed chambers filled with 3% O2, 5% CO2 in N2 and growth was assessed at 24 and 48 h using live cell imaging and automated counting as previously described. Growth inhibition was calculated by subtracting media only background counts and determining percentage growth relative to vehicle (0.2% DMSO) controls. The reliability of these assays was assessed by calculating Z’ factors for each plate as previously described.

Q: With `Cc1c(C(=O)NCCC2=CCCCC2)oc2c1-c1[nH]ncc1CC2` [SN00787159] as the compound, how does the “% Inhibition n=1 48h” value read?
A: 24.4%
